Measured values: US20080045492A1, “Mitotic Kinesin Inhibitors” (priority 2004, published 2008)

Target: T1, human KSP motor domain (KSP(367H)) (Homo sapiens, UniProt P52732)
T1 construct: were used to amplify the motor domain and the neck linker region; made in house; host or cells: E. coli BL21 (DE3), pRSETa
T1 sequence (P52732 18-359 limits assumed): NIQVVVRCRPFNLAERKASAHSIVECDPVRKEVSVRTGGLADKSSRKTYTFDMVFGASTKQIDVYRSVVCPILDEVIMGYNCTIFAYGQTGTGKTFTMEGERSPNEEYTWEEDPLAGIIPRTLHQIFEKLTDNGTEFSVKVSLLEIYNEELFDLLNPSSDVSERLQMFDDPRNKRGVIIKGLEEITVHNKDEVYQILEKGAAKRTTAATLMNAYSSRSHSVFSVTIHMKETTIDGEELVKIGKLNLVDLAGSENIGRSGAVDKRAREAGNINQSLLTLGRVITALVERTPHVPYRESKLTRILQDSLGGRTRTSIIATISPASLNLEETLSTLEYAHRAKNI
Assay: Kinesin ATPase In Vitro Assay
Format: biochemical
Description: I. Kinesin ATPase In Vitro Assay
The N-terminal primer 5′-[…] (SEQ. ID. NO.: 1) and the C-terminal primer 5′-[…] […] […] The PCR products were digested with AseI and XhoI, ligated into the NdeI/XhoI digestion product of pRSETa (Invitrogen) and transformed into E. coli BL21 (DE3).
Cells were grown at 37° C. to an OD600 of 0.5. After cooling the culture to room temperature expression of KSP was induced with 100 μM IPTG and incubation was continued overnight. Cells were pelleted by centrifugation and washed once with ice-cold PBS. Pellets were flash-frozen and stored −80° C. […]
The kinesin motor domain is incubated with microtubules, 1 mM ATP (1:1 MgCl2: Na-ATP), and compound at 23° C. in buffer containing 80 mM K-HEPES (pH 7.0), 1 mM EGTA, 1 mM DTT, 1 mM MgCl2, and 50 mM KCl. […] Free phosphate from the ATP hydrolysis reaction is measured via a quinaldine red/ammonium molybdate assay by adding a […] of quench C (e.g., to a mixture of 40 μl reaction volume+40 μl stop buffer is then added 120 μl quench C). […] Quench C is a 2:1 ratio of quench A:quench B The reaction is incubated for 5-10 minutes at 23° C., and the absorbance of the phospho-molybdate complex is measured at 540 nm.

CC(=O)C1=NN(c2cc(C)ccc2F)CC1(CCCN1CCN(C(C)=O)CC1)c1ccccc1 (racemic) [Compound 2-2, (±)-1-[4-[3-(4-acetylpiperazin-1-yl)propyl]-1-(2-fluoro-5-methylphenyl)-4-phenyl-4,5-dihydro-1H-pyrazol-3-yl]ethanone]
IC50: ≤ 50 µM
